Experimental findings from patent US6936585B2, “Corticotropin releasing factor 2 receptor agonists” (priority 2002, dated 2005) are described below.

For one experiment, the target named is T1, CRF1R (Homo sapiens, UniProt P34998).
T1 sequence (P34998 24-415): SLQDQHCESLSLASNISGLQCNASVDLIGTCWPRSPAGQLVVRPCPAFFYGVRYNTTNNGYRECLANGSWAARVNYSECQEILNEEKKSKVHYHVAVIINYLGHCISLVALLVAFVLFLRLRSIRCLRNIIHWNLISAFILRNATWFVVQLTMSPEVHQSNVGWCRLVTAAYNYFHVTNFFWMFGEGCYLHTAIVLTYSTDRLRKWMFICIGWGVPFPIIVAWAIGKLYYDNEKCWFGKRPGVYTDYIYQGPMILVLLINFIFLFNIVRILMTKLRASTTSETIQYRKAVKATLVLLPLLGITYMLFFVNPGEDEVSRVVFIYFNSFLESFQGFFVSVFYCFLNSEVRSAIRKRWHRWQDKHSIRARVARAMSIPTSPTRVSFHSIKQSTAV
Put plainly: CRF1R agonist activation (EC50 / Emax), called comparative CRF binding. Type of experiment: cell-based. As to conditions: for Emax: read-out: CRF1R Emax. In outline: (§1)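 Agonism at each human CRF receptor subtype is inferred from increased cAMP relative to vehicle, using cells expressing that subtype and either lysate cAMP measurement or a cAMP response element reporter.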

In another experiment the target is T2, CRF2R (Homo sapiens, UniProt Q13324).
T2 sequence (Q13324 1-411): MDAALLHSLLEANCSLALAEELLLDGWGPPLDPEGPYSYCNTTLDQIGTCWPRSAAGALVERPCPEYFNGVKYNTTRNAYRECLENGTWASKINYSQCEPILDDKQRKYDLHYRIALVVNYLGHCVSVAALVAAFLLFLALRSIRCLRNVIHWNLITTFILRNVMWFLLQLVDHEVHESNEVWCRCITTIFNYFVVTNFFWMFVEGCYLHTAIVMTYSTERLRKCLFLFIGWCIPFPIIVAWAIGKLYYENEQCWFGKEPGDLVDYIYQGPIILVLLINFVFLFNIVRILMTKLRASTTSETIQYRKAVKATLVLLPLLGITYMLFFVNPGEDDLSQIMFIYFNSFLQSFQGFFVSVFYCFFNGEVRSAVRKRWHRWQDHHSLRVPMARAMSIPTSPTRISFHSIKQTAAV
Put plainly: CRF2R agonist activation (EC50 / Emax), called comparative CRF binding. The settings on record: for Emax: read-out: CRF2R Emax. Type of experiment: cell-based. The method, boiled down:
as §1

For the molecule `CC[C@H](C)[C@H](NC(=O)[C@@H](NC(=O)[C@H](CC(=O)O)NC(=O)[C@H](CC(C)C)NC(=O)[C@H](CC(C)C)NC(=O)[C@H](CC(C)C)NC(=O)[C@H](CCCNC(=N)N)NC(=O)[C@H](CC(N)=O)NC(=O)[C@H](CC(N)=O)NC(=O)[C@H](C)NC(=O)[C@H](C)NC(=O)[C@H](CCC(N)=O)NC(=O)[C@H](CCC(N)=O)NC(=O)[C@H](CCCCN)NC(=O)[C@H](CCC(=O)O)NC(=O)[C@H](CCCCN)NC(=O)[C@H](CCC(=O)O)NC(=O)[C@H](CCC(N)=O)NC(=O)[C@H](CCCCN)NC(=O)[C@H](CCC(=O)O)NC(=O)[C@@H](NC(=O)[C@H](CCC(=O)O)NC(=O)[C@@H](NC(=O)[C@H](CCSC)NC(=O)[C@H](CCCCN)NC(=O)[C@H](CCCNC(=N)N)NC(=O)[C@H](CC(C)C)NC(=O)[C@H](CC(C)C)NC(=O)[C@@H](NC(=O)[C@H](CC(C)C)NC(=O)[C@@H]1CCCN1C(=O)[C@H](CC(C)C)NC(=O)[C@H](CC(=O)O)NC(=O)[C@@H](NC(=O)[C@H](CO)NC(=O)[C@@H](NC(=O)[C@@H]1CCCN1C(=O)[C@@H]1CCCN1C(=O)CNC(=O)[C@@H]1CCC(=O)N1)[C@@H](C)CC)[C@@H](C)CC)[C@@H](C)CC)[C@@H](C)CC)[C@@H](C)CC)[C@@H](C)O)C(N)=O` [compound 194], the results for the Emax at CRF1R and at CRF2R were 94% and 96%, respectively.

With `CC[C@H](C)[C@H](NC(=O)[C@@H](NC(=O)[C@H](CC(=O)O)NC(=O)[C@H](CC(C)C)NC(=O)[C@H](CC(C)C)NC(=O)[C@H](CC(C)C)NC(=O)[C@H](CCCNC(=N)N)NC(=O)[C@H](CC(N)=O)NC(=O)[C@H](CC(N)=O)NC(=O)[C@H](C)NC(=O)[C@H](C)NC(=O)[C@H](CCC(N)=O)NC(=O)[C@H](CCC(N)=O)NC(=O)[C@H](CCCCN)NC(=O)[C@H](CCC(=O)O)NC(=O)[C@H](CCCCN)NC(=O)[C@H](CCC(=O)O)NC(=O)[C@H](CCC(N)=O)NC(=O)[C@H](CCCCN)NC(=O)[C@H](CCC(=O)O)NC(=O)[C@@H](NC(=O)[C@H](CCC(=O)O)NC(=O)[C@@H](NC(=O)[C@H](CCSC)NC(=O)[C@H](CCCCN)NC(=O)[C@H](CCCNC(=N)N)NC(=O)[C@H](CC(C)C)NC(=O)[C@H](CC(C)C)NC(=O)[C@H](CC(=O)O)NC(=O)[C@@H](NC(=O)[C@@H]1CCCN1C(=O)[C@H](CC(C)C)NC(=O)[C@H](CC(=O)O)NC(=O)[C@@H](NC(=O)[C@H](CO)NC(=O)[C@@H](NC(=O)[C@@H]1CCCN1C(=O)[C@@H]1CCCN1C(=O)CNC(=O)[C@@H]1CCC(=O)N1)[C@@H](C)CC)[C@@H](C)CC)[C@@H](C)O)[C@@H](C)CC)[C@@H](C)CC)[C@@H](C)O)C(N)=O` [compound 49], the Emax (usually the size of the effect at its maximum, as opposed to the concentration needed) at CRF1R stood at 15%; on CRF2R, 37%.

Turning to `CC[C@H](C)[C@H](NC(=O)[C@@H](NC(=O)[C@H](CC(=O)O)NC(=O)[C@H](CC(C)C)NC(=O)[C@H](CC(C)C)NC(=O)[C@H](CC(C)C)NC(=O)[C@H](CCCNC(=N)N)NC(=O)[C@H](CC(N)=O)NC(=O)[C@H](CC(N)=O)NC(=O)[C@H](C)NC(=O)[C@H](C)NC(=O)[C@H](CCC(N)=O)NC(=O)[C@H](CCC(N)=O)NC(=O)[C@H](CCCCN)NC(=O)[C@H](CCC(=O)O)NC(=O)[C@H](CCCCN)NC(=O)[C@H](CCC(=O)O)NC(=O)[C@H](CCC(N)=O)NC(=O)[C@H](CCCCN)NC(=O)[C@H](CCC(=O)O)NC(=O)[C@@H](NC(=O)[C@H](CCC(=O)O)NC(=O)[C@@H](NC(=O)[C@H](CCSC)NC(=O)[C@H](CCCCN)NC(=O)[C@H](CCCNC(=N)N)NC(=O)[C@H](CC(C)C)NC(=O)[C@H](CC(C)C)NC(=O)[C@H](CCC(=O)O)NC(=O)[C@@H](NC(=O)[C@@H]1CCCN1C(=O)[C@H](CC(C)C)NC(=O)[C@H](CC(=O)O)NC(=O)[C@@H](NC(=O)[C@H](CO)NC(=O)[C@@H](NC(=O)[C@@H]1CCCN1C(=O)[C@@H]1CCCN1C(=O)CNC(=O)[C@@H]1CCC(=O)N1)[C@@H](C)CC)[C@@H](C)CC)[C@@H](C)O)[C@@H](C)CC)[C@@H](C)CC)[C@@H](C)O)C(N)=O` [compound 71], the Emax at CRF1R was 6%; at CRF2R, 56%.

In the case of `CC[C@H](C)[C@H](NC(=O)[C@@H](NC(=O)[C@H](CC(=O)O)NC(=O)[C@H](CC(C)C)NC(=O)[C@H](CC(C)C)NC(=O)[C@H](CC(C)C)NC(=O)[C@H](CCCNC(=N)N)NC(=O)[C@H](CC(N)=O)NC(=O)[C@H](CC(N)=O)NC(=O)[C@H](C)NC(=O)[C@H](C)NC(=O)[C@H](CCC(N)=O)NC(=O)[C@H](CCC(N)=O)NC(=O)[C@H](CCCCN)NC(=O)[C@H](CCC(=O)O)NC(=O)[C@H](CCCCN)NC(=O)[C@H](CCC(=O)O)NC(=O)[C@H](CCC(N)=O)NC(=O)[C@H](CCCCN)NC(=O)[C@H](CCC(=O)O)NC(=O)[C@@H](NC(=O)[C@H](CCC(=O)O)NC(=O)[C@@H](NC(=O)[C@H](CCSC)NC(=O)[C@H](CCCCN)NC(=O)[C@H](CCCNC(=N)N)NC(=O)[C@H](CC(C)C)NC(=O)[C@H](CC(C)C)NC(=O)[C@H](Cc1c[nH]cn1)NC(=O)[C@H](Cc1c[nH]c2ccccc12)NC(=O)[C@@H]1CCCN1C(=O)[C@H](CC(C)C)NC(=O)[C@H](CC(=O)O)NC(=O)[C@@H](NC(=O)[C@H](CO)NC(=O)[C@@H](NC(=O)[C@@H]1CCCN1C(=O)[C@@H]1CCCN1C(=O)CNC(=O)[C@@H]1CCC(=O)N1)[C@@H](C)CC)[C@@H](C)CC)[C@@H](C)CC)[C@@H](C)CC)[C@@H](C)O)C(N)=O` [compound 209], the EC50 (as a rule, the concentration at which the effect is half-maximal) on CRF1R (CRF1R EC50) was found to be 26.4 nM; at CRF2R, 7.4 nM. Also, the values for the Emax on CRF1R and at CRF2R were 80% and 93%, respectively.

For `CC[C@H](C)[C@H](NC(=O)[C@H](CCC(=O)O)NC(=O)[C@@H](NC(=O)[C@H](CCSC)NC(=O)[C@H](CCCCN)NC(=O)[C@H](CCCNC(=N)N)NC(=O)[C@H](CC(C)C)NC(=O)[C@H](CC(C)C)NC(=O)[C@H](CCC(N)=O)NC(=O)[C@H](Cc1ccccc1)NC(=O)[C@@H]1CCCN1C(=O)[C@H](CC(C)C)NC(=O)[C@H](CC(=O)O)NC(=O)[C@@H](NC(=O)[C@H](CO)NC(=O)[C@@H](NC(=O)[C@@H]1CCCN1C(=O)[C@@H]1CCCN1C(=O)CNC(=O)[C@@H]1CCC(=O)N1)[C@@H](C)CC)[C@@H](C)CC)[C@@H](C)CC)C(=O)N[C@@H](CCC(=O)O)C(=O)N[C@@H](CCCCN)C(=O)N[C@@H](CCC(N)=O)C(=O)N[C@@H](CCC(=O)O)C(=O)N[C@@H](CCCCN)C(=O)N[C@@H](CCC(=O)O)C(=O)N[C@@H](CCCCN)C(=O)N[C@@H](CCC(N)=O)C(=O)N[C@@H](CCC(N)=O)C(=O)N[C@@H](C)C(=O)N[C@H](C(=O)N[C@H](C(=O)N[C@@H](CC(N)=O)C(=O)N[C@@H](CCCNC(=N)N)C(=O)N[C@@H](CC(C)C)C(=O)N[C@@H](CC(C)C)C(=O)N[C@@H](CC(C)C)C(=O)N[C@@H](CC(=O)O)C(=O)N[C@H](C(=O)N[C@H](C(N)=O)C(C)C)[C@@H](C)O)[C@@H](C)O)[C@@H](C)O` [compound 16], the Emax was determined as 98% on CRF1R and 86% on CRF2R.

Regarding `CC[C@H](C)[C@H](NC(=O)[C@@H](NC(=O)[C@H](C)NC(=O)[C@H](CC(C)C)NC(=O)[C@H](CC(C)C)NC(=O)[C@H](CC(C)C)NC(=O)[C@H](C)NC(=O)[C@H](CC(N)=O)NC(=O)[C@H](CC(N)=O)NC(=O)[C@H](C)NC(=O)[C@H](C)NC(=O)[C@H](CCC(N)=O)NC(=O)[C@H](CCC(N)=O)NC(=O)[C@H](CCCCN)NC(=O)[C@H](CCC(=O)O)NC(=O)[C@H](CCCCN)NC(=O)[C@H](CCC(=O)O)NC(=O)[C@H](CCC(N)=O)NC(=O)[C@H](CCCCN)NC(=O)[C@H](CCC(=O)O)NC(=O)[C@@H](NC(=O)[C@H](CCC(=O)O)NC(=O)[C@@H](NC(=O)[C@H](CCSC)NC(=O)[C@H](CCCCN)NC(=O)[C@H](CCCNC(=N)N)NC(=O)[C@H](CC(C)C)NC(=O)[C@H](CC(C)C)NC(=O)[C@H](CCC(=O)O)NC(=O)[C@H](CC(C)C)NC(=O)[C@H](CO)NC(=O)[C@H](CC(C)C)NC(=O)[C@H](CC(=O)O)NC(=O)[C@@H](NC(=O)[C@H](CO)NC(=O)[C@@H](NC(=O)[C@@H]1CCCN1C(=O)[C@@H]1CCCN1C(=O)CNC(=O)[C@@H]1CCC(=O)N1)[C@@H](C)CC)[C@@H](C)CC)[C@@H](C)CC)[C@@H](C)CC)[C@@H](C)O)C(N)=O` [compound 30], the values for the Emax on CRF1R and on CRF2R were 100% and 85.5%, respectively.
